Earlier results on 1 substance are cited in patent US7432414B2, “Transgenic mouse having an amyloid precursor protein with a modified beta secretase cleavage site” (Merck & Co., Inc., priority 2004, dated 2008).

Protein sequences, listed by entry. Tags and fused reporters are not part of them. Residues count along the entry.
UniProt P56817, 46-501: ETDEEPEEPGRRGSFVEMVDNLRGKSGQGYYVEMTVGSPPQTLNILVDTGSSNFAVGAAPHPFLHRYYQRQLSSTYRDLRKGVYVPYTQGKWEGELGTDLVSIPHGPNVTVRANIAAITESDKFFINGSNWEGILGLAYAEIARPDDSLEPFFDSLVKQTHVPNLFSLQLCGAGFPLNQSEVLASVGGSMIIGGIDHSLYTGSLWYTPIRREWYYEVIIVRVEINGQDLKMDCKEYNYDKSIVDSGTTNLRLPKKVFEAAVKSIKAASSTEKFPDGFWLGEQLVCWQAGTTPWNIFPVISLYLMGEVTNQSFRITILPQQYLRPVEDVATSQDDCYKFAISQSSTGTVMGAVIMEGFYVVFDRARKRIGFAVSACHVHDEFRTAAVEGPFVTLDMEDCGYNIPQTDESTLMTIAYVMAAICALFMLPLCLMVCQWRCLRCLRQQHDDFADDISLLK

Broadly, the Ki is a measure of affinity in units of concentration, obtained from inhibition or displacement.

In the data set the target is T1, recombinant β secretase produced in E. coli (Homo sapiens, UniProt P56817).
T1 construct: host or cells: E. coli
The settings on record: Ghosh et al., 2000, J. Am. Chem. Soc. 122:3522-3523, read-out: Ki towards recombinant β secretase.

On to VNLAAEF [OM99-1], for which the inhibitory constant (Ki) was approximately 68 nM.
